The record followed here is patent US6331555A, “Treatment of platelet derived growth factor related disorders such as cancers” (priority 1999, dated 2001).

Protein sequences, listed by entry. Tags and fused reporters are not part of them. Residues count along the entry.
UniProt P09619, 33-1106: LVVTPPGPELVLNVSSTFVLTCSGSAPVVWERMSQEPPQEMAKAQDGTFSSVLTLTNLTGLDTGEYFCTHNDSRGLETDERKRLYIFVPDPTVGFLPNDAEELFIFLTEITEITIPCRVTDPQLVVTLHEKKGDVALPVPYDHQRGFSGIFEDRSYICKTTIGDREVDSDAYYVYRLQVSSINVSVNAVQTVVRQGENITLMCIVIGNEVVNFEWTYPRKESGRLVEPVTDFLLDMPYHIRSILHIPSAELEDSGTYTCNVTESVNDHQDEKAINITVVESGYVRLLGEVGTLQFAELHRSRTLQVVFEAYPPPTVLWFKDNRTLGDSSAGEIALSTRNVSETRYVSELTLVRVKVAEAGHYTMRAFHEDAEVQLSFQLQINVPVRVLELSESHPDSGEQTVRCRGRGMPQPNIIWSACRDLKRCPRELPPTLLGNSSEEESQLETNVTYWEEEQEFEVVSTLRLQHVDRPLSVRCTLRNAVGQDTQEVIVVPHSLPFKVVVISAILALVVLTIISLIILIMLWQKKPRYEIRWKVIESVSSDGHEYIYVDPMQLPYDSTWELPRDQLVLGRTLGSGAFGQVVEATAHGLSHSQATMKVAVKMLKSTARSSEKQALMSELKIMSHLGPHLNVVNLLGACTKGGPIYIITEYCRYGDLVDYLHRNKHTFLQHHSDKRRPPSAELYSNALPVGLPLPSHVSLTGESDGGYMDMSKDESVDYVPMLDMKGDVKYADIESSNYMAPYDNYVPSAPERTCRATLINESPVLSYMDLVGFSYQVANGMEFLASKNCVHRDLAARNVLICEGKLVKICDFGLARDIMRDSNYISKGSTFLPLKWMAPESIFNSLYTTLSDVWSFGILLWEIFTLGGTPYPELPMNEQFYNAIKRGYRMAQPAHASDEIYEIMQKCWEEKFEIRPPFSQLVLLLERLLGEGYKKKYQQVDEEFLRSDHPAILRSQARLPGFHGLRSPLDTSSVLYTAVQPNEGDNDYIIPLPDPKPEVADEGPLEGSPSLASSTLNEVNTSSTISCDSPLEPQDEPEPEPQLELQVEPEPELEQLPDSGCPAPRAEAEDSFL

One test addresses T1, PDGF-R (U1242) (Homo sapiens, UniProt P09619).
T1 construct: U1242 (PDGF-β receptor); host or cells: U1242 MG glioma cells
Put plainly: U1242 kinase (PDGF-R activity). The test is classed as cell-based. On the procedure:
For western blotting, cells were plated in 2 mL growth medium into 6-well dishes (500,000 cells per well) and allowed to attach overnight. […] The plates were then incubated overnight at 37° C., ambient CO2. […] After a 7 min incubation at room temperature with ligand, the plates were put on ice and washed three times with 1 mL ice-cold PBS plus 1 mM orthovanadate. Lysis was achieved by pipetting cells in 0.5 mL of buffer containing 50 mM Tris, pH 7.4, 10% glycerol, 1% NP-40, 2 mM EDTA, 1 mM sodium vanadate (Na3 VO4), 10 mM pyrophosphate, 1 mM PMSF, […]. A 300 μL aliquot of each lysate was immediately added to 100 μL 4×Laemmli sample buffer ([…] Tris pH 6.9, 20% glycerol, 7% SDS, 5 mM EDTA, 5% β-mercaptoethanol) containing phosphatase inhibitors, 2 mM Na3 VO4 and 10 mM pyrophosphate. Samples were boiled for 5 min, frozen in dry ice-ethanol, and stored at -80° C. […] The integrity of the protein-to-membrane transfer was determined by staining with 1% Ponceau S in 5% acetic acid for 5 min. […] Phosphotyresine was detected by incubating the membrane (1 hr at room temperature) with an anti-phosphotyosine antiserum diluted in blocking buffer at 1:3000. […]
PDGF-R activity, C6 SRB, and in vivo efficacy were measured using the procedures described in the appendices above.

For the next test, the target named is PDGFR (Homo sapiens, UniProt P09619). In words: Receptor tyrosine kinase inhibition, PDGFR. The test is classed as cell-based. Further details: U1242 (PDGF-β receptor); host or cells: U1242 glioma cells (ELISA). On the procedure: For western blotting, cells were plated in 2 mL growth medium into 6-well dishes (500,000 cells per well) and allowed to attach overnight. […] The plates were then incubated overnight at 37° C., ambient CO2. […] After a 7 min incubation at room temperature with ligand, the plates were put on ice and washed three times with 1 mL ice-cold PBS plus 1 mM orthovanadate. Lysis was achieved by pipetting cells in 0.5 mL of buffer containing 50 mM Tris, pH 7.4, 10% glycerol, 1% NP-40, 2 mM EDTA, 1 mM sodium vanadate (Na3 VO4), 10 mM pyrophosphate, 1 mM PMSF, […]. A 300 μL aliquot of each lysate was immediately added to 100 μL 4×Laemmli sample buffer ([…] Tris pH 6.9, 20% glycerol, 7% SDS, 5 mM EDTA, 5% β-mercaptoethanol) containing phosphatase inhibitors, 2 mM Na3 VO4 and 10 mM pyrophosphate. Samples were boiled for 5 min, frozen in dry ice-ethanol, and stored at -80° C. […] The integrity of the protein-to-membrane transfer was determined by staining with 1% Ponceau S in 5% acetic acid for 5 min. After destaining in several distilled water rinses, the membrane was soaked overnight in blocking buffer containing 5% milk in Tris-buffered saline, 0.05% Tween 20. Phosphotyresine was detected by incubating the membrane (1 hr at room temperature) with an anti-phosphotyosine antiserum diluted in blocking buffer at 1:3000. […]

For the molecule `Cc1cc2ncc(-c3ccccc3)nc2cc1C` [Compound G13], the IC50 against PDGF-R (U1242) and on PDGFR was 1.5 µM in each case.
